Biological target: CLC-2 (Homo sapiens (Human), UniProt P51788)
Assay: IonWorks Barracuda automated patch-clamp electrophysiology, human CLC-2 cell line
Type: cell-based
Conditions: n = 4 cells, four concentrations of each compound, read-out: IC50 (μM) against CLC-2
Excerpt: FIG. 8, panels A and B depict graphically the Selectivity between CLC-1 and CLC-2. […]

Chains of the proteins cited; added tags and fusions are not shown. Lines headed by an entry give the natural chain unless they say otherwise; changes in a name come on top.
UniProt P51788: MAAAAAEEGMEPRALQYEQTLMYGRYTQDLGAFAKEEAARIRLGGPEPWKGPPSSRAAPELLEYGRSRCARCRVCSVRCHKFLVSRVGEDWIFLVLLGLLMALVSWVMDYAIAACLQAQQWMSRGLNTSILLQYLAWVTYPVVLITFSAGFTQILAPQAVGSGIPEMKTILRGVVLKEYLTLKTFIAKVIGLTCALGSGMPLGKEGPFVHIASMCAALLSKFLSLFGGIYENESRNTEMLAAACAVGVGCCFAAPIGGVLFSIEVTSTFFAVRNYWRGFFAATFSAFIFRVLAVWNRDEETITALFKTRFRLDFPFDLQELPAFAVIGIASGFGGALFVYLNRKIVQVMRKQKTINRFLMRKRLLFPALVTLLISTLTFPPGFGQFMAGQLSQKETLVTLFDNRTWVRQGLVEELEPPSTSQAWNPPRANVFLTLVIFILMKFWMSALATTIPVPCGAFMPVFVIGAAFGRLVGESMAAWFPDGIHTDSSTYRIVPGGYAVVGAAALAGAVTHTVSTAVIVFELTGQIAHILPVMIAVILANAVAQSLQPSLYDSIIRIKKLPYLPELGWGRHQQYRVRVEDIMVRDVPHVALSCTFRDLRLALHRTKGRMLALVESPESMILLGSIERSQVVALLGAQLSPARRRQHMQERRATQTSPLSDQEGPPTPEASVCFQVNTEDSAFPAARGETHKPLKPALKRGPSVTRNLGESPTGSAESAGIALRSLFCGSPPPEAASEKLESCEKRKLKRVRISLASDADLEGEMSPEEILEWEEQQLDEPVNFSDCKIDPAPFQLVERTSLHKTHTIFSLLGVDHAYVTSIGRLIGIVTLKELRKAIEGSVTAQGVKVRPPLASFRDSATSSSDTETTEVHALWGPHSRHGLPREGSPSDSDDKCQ

In the case of `O=C(O)Cc1ccccc1Nc1c(Cl)cccc1Cl` [Diclofenac, reference compound], the IC50 was > 363 µM.

From patent publication US11173137B2, “Compositions and methods to modulate chloride ion channel activity” (The Board of Trustees of the Leland Stanford Junior …, priority 2018, dated 2021)
